Data reported in patent publication US20080131907A1, “ASSAYS FOR DETECTING NATIVE-STATE PROTEINS AND IDENTIFYING COMPOUNDS THAT MODULATE THE STABILITY OF NATIVE-STATE PROTEINS” (FoldRx Pharmaceuticals, Inc., priority 2006, published 2008).

Target: tetrameric transthyretin (Homo sapiens, UniProt P02766)
Test: Immuno-turbidimetric assay 1: plasma + compound, 4.8 M urea, glutaraldehyde cross-linking, Olympus OSR6175 reagent
Conditions: 7.2 μM, plasma with 17.7, 25.4 or 30.1 mg/dL transthyretin, FIG. 8

O=C(O)c1ccc2nc(-c3cc(Cl)cc(Cl)c3)oc2c1 [Cmp. 2]
Kinetics of tetrameric transthyretin stabilization at different transthyretin concentrations: equivalent
Efficacy on different plasma concentrations of transthyretin (days 1-3): equivalently effective on different concentrations of transthyretin
